From paper PMC6698826

Sequences of proteins named here, by UniProt entry; tags and fusion partners are left off. Residues count along the entry.
UniProt P55899, 24-297, chain 1 of 2: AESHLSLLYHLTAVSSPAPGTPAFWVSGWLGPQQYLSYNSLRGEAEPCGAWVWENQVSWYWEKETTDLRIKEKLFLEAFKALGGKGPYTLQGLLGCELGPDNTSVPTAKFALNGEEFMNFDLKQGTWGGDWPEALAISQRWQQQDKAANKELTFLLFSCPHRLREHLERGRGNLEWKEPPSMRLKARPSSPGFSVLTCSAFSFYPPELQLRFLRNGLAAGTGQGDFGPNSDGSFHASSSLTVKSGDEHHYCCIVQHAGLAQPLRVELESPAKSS

Molecular target: recombinant human FcRn (FcRn-His6) (UniProt P55899)
Assay: ELISA; competition: FcRn-His6 captured at 4 μg/mL on copper-coated plates; serial dilutions of unlabeled test antibody with a fixed 4 μg/mL of biotinylated huIgG1; pH 6.0 (0.05 M MES); 1 h at room temperature; streptavidin-HRP and TMB, absorbance at 450 nm

- fold reduction in binding affinity relative to the huIgG1 wild-type control: < 2 fold
Substance: Ab1 huIgG1 sigma (IgG1σ) (antibody)
